Experiment [1] addresses T1, Metabotropic glutamate receptor 5 (Rattus norvegicus, UniProt P31424). The experiment in a line: Displacement of [3H]methoxy-PEPY from rat mGluR5 expressed in human HEK-293 cells by liquid scintillation counting. The format is cell-based, HEK293. The method in brief: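 Membranes from stable rat mGluR5-HEK293A cells (10 µg/well) incubated with 2 nM [3H]methoxy-PEPY in 50 mM Tris/0.9% NaCl, pH 7.4, with or without compound, 1 h at room temperature with shaking. Filtered on GF/B, washed three times, counted by liquid scintillation. Nonspecific binding defined with 5 µM MPEP. Ki derived from fitted IC50; three experiments in duplicate.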

Chains of the proteins cited; added tags and fusions are not shown.
UniProt P31424, whole entry: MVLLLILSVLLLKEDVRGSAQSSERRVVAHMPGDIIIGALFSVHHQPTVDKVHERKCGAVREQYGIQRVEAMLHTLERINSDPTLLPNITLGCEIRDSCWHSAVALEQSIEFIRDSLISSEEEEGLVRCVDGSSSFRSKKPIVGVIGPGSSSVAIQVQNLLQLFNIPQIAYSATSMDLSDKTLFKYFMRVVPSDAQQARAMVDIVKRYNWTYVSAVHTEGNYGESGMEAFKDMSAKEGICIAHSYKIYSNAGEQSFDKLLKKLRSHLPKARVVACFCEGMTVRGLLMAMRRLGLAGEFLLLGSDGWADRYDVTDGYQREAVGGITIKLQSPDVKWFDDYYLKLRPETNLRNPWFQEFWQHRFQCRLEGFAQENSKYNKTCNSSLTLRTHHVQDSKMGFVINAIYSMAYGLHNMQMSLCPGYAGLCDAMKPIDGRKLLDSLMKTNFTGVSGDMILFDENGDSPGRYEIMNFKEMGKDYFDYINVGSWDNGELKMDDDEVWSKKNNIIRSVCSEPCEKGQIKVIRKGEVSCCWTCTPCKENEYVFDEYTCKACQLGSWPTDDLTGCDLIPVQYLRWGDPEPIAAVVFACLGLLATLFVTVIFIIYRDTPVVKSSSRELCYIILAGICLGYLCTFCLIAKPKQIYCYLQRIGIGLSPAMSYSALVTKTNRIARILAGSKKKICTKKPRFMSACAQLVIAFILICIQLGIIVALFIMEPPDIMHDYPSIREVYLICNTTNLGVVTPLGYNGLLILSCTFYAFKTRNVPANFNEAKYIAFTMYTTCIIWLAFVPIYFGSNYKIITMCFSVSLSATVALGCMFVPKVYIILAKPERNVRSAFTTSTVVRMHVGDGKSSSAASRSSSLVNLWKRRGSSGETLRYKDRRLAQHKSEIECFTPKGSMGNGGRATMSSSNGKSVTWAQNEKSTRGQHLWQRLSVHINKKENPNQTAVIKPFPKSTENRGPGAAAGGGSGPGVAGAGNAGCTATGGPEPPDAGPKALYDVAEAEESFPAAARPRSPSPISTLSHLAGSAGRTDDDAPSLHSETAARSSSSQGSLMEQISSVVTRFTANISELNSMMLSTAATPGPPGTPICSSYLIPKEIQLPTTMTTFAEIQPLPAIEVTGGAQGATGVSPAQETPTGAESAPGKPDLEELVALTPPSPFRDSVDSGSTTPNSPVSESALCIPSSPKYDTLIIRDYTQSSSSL

Experiment [2] deals with T1, Metabotropic glutamate receptor 5. The experiment in a line: Antagonist activity at rat mGluR5 expressed in human HEK-293 cells assessed as inhibition of glutamate-induced intracellular calcium mobilization. It counts as functional, cell-based, HEK293. On the technique in general: Calcium assays in cells follow changes in intracellular calcium, usually with a dye or a luminescent sensor.

The structures appear in SMILES notation.

For orientation: Ki means a dissociation constant, usually derived from enzyme kinetics or from competition with a known ligand. Low readings indicate a stronger hold on the target, high ones a looser hold on the target. By IC50 is commonly meant the concentration at which inhibition is half-maximal.

Turning to `N#Cc1cc(F)cc(C#Cc2ccccn2)c1`, in experiment [1], affinity was put at a Ki of 0.2 nM. Besides, in experiment [2], the concentration for half-maximal inhibition (IC50) was determined as 0.66 nM.

As to `Cc1cccc(C#Cc2ccccc2)n1`, in experiment [1], the Ki was 18.7 nM. Besides, the IC50 in experiment [2] was determined as 2.93 nM.

In the case of `Cc1nc(C#Cc2cccnc2)cs1`, the IC50 in experiment [2] came out at 5 nM.

The values above are taken from ChEMBL document CHEMBL1781909, “Potent mGluR5 antagonists: pyridyl and thiazolyl-ethynyl-3,5-disubstituted-phenyl series” (Bioorg Med Chem Lett, 2011).
